The chains behind the UniProt entries cited, without tags or fusion partners.
UniProt P11712, whole entry: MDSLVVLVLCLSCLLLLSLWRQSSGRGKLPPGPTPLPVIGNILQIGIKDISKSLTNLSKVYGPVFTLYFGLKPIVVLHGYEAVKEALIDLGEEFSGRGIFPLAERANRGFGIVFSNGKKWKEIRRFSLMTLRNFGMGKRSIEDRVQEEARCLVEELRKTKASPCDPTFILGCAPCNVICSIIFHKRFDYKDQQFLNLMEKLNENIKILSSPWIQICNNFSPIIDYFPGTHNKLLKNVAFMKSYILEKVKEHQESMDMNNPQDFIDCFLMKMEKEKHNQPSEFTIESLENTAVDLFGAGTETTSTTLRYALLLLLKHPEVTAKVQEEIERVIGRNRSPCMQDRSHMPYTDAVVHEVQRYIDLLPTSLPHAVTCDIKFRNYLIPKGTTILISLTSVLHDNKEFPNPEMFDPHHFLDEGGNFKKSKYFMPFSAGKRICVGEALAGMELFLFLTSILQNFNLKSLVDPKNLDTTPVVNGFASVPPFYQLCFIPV
UniProt Q96S37, whole entry: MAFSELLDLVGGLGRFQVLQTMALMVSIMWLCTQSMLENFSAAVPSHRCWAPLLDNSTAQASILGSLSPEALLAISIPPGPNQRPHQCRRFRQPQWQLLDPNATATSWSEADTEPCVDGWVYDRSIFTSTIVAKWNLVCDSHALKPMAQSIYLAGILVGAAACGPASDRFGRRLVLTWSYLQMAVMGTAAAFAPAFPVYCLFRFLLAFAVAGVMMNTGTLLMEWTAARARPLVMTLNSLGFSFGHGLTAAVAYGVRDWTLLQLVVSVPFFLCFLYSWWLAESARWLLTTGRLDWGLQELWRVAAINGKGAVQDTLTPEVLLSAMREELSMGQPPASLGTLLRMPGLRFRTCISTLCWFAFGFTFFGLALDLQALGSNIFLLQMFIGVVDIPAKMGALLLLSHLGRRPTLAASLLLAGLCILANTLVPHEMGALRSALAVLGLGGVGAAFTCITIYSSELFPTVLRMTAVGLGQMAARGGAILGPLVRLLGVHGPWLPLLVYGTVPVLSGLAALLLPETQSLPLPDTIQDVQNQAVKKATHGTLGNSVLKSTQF

According to US8394792B2:

Assays:
CYP2C9 = CYP2C9 (Homo sapiens, UniProt P11712)
hURAT1 = hURAT1 (Homo sapiens, UniProt Q96S37); test: Test for inhibiting urate reuptake activity via hURAT1 (uric acid transport assay in hURAT1-overexpressed HEK293 cell line); settings: read-out: IC50 (μM) hURAT, level of uric acid reuptake inhibition; hURAT1-overexpressed HEK293 cells, [14C]-uric acid uptake, 100 μM uric acid

IC50 (CYP2C9): 10.8 µM | IC50 (hURAT1): 0.0048 µM
SMILES: O=C(c1cc(Br)c(O)c(Br)c1)N1CCOc2ncc(-c3cccc4[nH]ccc34)cc21
